Measured values: ChEMBL document CHEMBL4706610, “Hydroxypyridinone-Based Iron Chelators with Broad-Ranging Biological Activities” (J Med Chem, 2020)

The chains behind the UniProt entries cited, without tags or fusion partners.
UniProt P05067, whole entry: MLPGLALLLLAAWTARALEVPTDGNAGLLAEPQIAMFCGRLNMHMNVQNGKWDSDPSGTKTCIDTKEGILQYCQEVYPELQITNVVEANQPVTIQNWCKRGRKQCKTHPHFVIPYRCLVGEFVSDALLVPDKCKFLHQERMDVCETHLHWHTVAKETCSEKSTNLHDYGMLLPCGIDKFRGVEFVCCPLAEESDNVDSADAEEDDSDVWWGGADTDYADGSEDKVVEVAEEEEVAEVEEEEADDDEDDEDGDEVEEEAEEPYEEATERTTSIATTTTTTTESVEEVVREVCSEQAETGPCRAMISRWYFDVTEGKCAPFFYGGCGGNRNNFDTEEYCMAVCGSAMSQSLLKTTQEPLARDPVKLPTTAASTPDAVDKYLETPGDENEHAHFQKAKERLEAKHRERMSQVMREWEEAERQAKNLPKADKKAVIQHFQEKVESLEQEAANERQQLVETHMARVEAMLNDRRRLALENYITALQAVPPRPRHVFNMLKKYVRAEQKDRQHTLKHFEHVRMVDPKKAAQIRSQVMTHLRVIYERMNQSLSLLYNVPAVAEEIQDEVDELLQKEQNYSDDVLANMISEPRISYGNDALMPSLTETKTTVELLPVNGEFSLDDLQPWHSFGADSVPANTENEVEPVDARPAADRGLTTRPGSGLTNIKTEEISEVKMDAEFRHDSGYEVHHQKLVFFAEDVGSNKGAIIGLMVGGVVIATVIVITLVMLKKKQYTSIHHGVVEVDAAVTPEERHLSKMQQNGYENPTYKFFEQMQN

Target: Amyloid-beta precursor protein (Homo sapiens, UniProt P05067)
Assay: Inhibition of self-induced amyloid beta (1 to 42) (unknown origin) aggregation at 20 uM incubated for 24 hrs by ThT fluorescence assay relative to control

- inhibition: 80.1%
Compound: C#CCN(C)CCCn1ccc(=O)c(O)c1C
